Assay: Calcite dissolving capacity of breaker systems
Type: physicochemical
Conditions: 2.5 g BARACARB 5 in 50 mL test fluid, one hour

## Cl.NC(N)=O [Synthetic acid (HCl salt of urea), HCl salt of urea]
  % Carbonate Complexed or Dissolved: 35.2%
  Final Weight of BARACARB 5, g: 1.62 g

Source: US8881823B2, “Environmentally friendly low temperature breaker systems and related methods” (Halliburton Energy Services, Inc., priority 2011, dated 2014)
